Source: article PMC9174471
Some of the results follow.

Each substance was assayed against Obg-like ATPase 1 (UniProt Q9NTK5) (assay: cross-link between two proteins; cross-linking mass spectrometry).

Substance	listed as a hit
Histone H2B type 1-B, P33778	yes
Histone H2B type 1-L, Q99880	yes
Small ribosomal subunit protein uS12, P62266	yes
Histone H1.10, Q92522	yes
